Consider nine molecules from US10087191B2, “Piperidine derivative and preparation method and pharmaceutical use thereof” (Jiangsu Hengrui Medicine Co., Ltd., priority 2015, dated 2018).

The chains behind the UniProt entries cited, without tags or fusion partners.
UniProt P03372, whole entry: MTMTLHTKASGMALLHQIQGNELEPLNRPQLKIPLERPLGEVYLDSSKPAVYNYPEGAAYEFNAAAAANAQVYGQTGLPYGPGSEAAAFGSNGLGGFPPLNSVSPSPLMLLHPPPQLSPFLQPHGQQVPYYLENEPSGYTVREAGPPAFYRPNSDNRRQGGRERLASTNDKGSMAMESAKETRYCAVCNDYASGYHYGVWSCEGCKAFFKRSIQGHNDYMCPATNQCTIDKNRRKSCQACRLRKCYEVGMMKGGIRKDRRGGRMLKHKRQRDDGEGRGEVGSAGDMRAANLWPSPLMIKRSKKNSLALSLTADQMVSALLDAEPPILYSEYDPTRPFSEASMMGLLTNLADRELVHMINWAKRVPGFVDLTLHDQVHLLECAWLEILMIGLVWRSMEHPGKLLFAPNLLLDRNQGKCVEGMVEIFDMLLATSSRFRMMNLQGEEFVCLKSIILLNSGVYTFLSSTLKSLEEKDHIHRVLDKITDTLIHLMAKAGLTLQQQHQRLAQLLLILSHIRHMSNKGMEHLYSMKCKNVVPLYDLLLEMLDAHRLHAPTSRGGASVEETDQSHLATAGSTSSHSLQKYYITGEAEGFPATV

Like-named read-outs stand apart in the source and are kept apart here.

Common to all, as to format: cell-based
One assay deals with MCF7 cells. The assay is described as follows: Inhibition of the proliferation of MCF7 cells (Cell Titer-Glo). The following applies: Homo sapiens, MCF-7 cells, 72 hours, read-out: IC50 value of inhibition effect on the proliferation of MCF7 cells. The procedure: The object of this experiment was to determine the inhibition effect of the compounds on the proliferation activity of MCF7 cells, and the in vitro activity of the compounds was evaluated according to the IC50 value.
After incubation for 24 hours, the medium was removed, then 90 μl of the medium containing 2% FBS and 10 μl of the drug were added to each well, 10 μl of DMSO were added to the control group, and the blank group contained only 100 μl medium containing 2% FBS. The plate was gently shaken and incubated in a incubator at 37° C., 5% CO2. After 72 hours, 50 μl of mixed Cell Titer-Glo (Promega, Cat. No. G7571) were added to each well. The plate was shaken until the ingredients were well mixed, and placed at room temperature for 10 minutes, then the chemiluminescence signal value was determined.
The values of the chemiluminescence signals vs the logarithmic concentrations of the compounds were plotted using Graghpad Prism to obtain IC50 values.
Background: In ATP-based viability assays light output follows the ATP content of the culture.

For the next assay, the target named is ERα (Homo sapiens (Human), UniProt P03372). Briefly: Degradation effect on ERα in MCF-7 cells (ERα Duoset ELISA). To be noted: read-out: IC50 value of the degradation effect on ERα. The procedure: In order to determine the degradation effect on ER induced by the compounds of the present invention, the following method was used to determine the degradation effect of the compounds of the present invention on ER.
MCF-7 cell line (TChu 74, Cell Bank of Chinese Academy of Sciences typical culture preservation Committee)
ERα Duoset Kit (#DYC5715E, R&D System)
MCF-7 cells were incubated in DMEM/F-12 medium containing 10% FBS.
On the first day of the experiment, MCF-7 cells were resuspended in DMEM/F-12 medium containing 10% FBS treated by activated carbon, then inoculated into a 48-well plate with a density of 50,000 cells/well and incubated for 22-24 hours.
On the second day of the experiment, the test compound was diluted with medium and added to a 48-well plate. The ERα-capture antibody was diluted to 1 μg/ml with PBS, and added to a 96-well plate at 100 μl/well. The plate was sealed and coated overnight at room temperature.
On the third day of the experiment, the coated 96-well plate was washed twice with PBS, added with a sealing solution (1% BSA in PBS) at 110 μl/well and sealed for 1 hour at room temperature. The 48-well plate was washed once with PBS, and the residual liquid was removed. Then, 60 μl of lysis (6 M urea, 1 mM EDTA, 0.5% Triton X-100, 1 mM PMSF, Protease Inhibitor cocktail) was added to each well. After lysis on ice for 15 minutes, the diluent (1 mM EDTA, 0.5% TritonX-100 dissolved in PBS) was added. The cell-diluted lysate was transferred to a 96-well plate at 100 μl/well, then the plate was incubated at room temperature for 2 hours. The diluted primary antibody was added after the plate was washed 4 times with a washing liquid (PBST). After incubation for 1 hour, the 96-well plate was washed 4 times, and the second antibody was added, then the plate was incubated for 30 minutes. After the plate was washed with a washing liquid, TMB chromogenic solution was added and incubated for 15 minutes. The reaction was stopped by the addition of 1 M H2SO4, then the light absorption at 450 nm was read.
(In general: An ELISA detects its analyte on a solid surface through an enzyme-linked reagent.)

The target in another assay is estrogen receptor (ER) (Homo sapiens (Human), UniProt P03372). Briefly: Inhibition of the binding of estrogen (E) to estrogen receptor (ER), MCF-7/ERE-luciferase reporter cells. To be noted: MCF-7/ERE-luciferase cells, 0.1 nM estradiol, 24 hours; read-out: IC50 value of inhibition effect on the binding of E to ER. The protocol: The inhibition effect of the compounds on the binding of E to ER in vitro was tested by the following method.
The object of this experiment was to determine the inhibition effect of the compounds on the binding of E to ER, and the in vitro activity of the compounds was evaluated according to the IC50 value.
MCF-7/ERE-luciferase cells were inoculated into the MEM medium (hyclone, SH30024.01B) containing 10% charcoal stripped FBS (Moregate, FBSF), 1% sodium pyruvate (Sigma, Cat. No. S8636), 1% nonessential amino acids (Sigma, Cat. No. M7145) and 500 μg/ml G418 in a 96-well plate with a density of 30,000 cells/well, and the cells were incubated under the conditions of 37° C. and 5% CO2. […] After incubation for 24 hours, the medium was removed, then 0.1 nM estradiol (Sigma, Cat. No. E2758) and 10 μl of the drug diluted with the medium were added to each well, and the control group was added with DMSO. The plate was gently shaken and incubated in a incubator at 37° C., 5% CO2. After 24 hours, the cell culture medium was discarded.
The inhibition effect of the compounds of the present invention on the binding of E to ER was tested by the experiment described above.
(In a reporter assay the amount or activity of a reporter protein is the signal.)

Consider `C[C@@H]1Cc2cc(C#Cc3cnn(C)c3)ccc2[C@@H](c2c(F)cc(/C=C/C(=O)O)cc2F)N1CC(C)(C)F` [Example 8, (E)-3-(3,5-difluoro-4-((1S,3R)-2-(2-fluoro-2-methylpropyl)-3-methyl-6-((1-methyl-1H-pyrazol-4-yl)ethynyl)-1,2,3,4-tetrahydroisoquinolin-1-yl)phenyl)acrylic acid], for which, in the assay with MCF7 cells, the IC50 worked out at 1.58 nM.
Turning to `C[C@H]1Cc2cc(C#Cc3cnn(C)c3)ccc2[C@H](c2c(F)cc(/C=C/C(=O)O)cc2F)N1CC(C)(C)F` [Example 9, (E)-3-(3,5-difluoro-4-((1R,3S)-2-(2-fluoro-2-methylpropyl)-3-methyl-6-((1-methyl-1H-pyrazol-4-yl)ethynyl)-1,2,3,4-tetrahydroisoquinolin-1-yl)phenyl)acrylic acid], in the assay with MCF7 cells, the IC50 came out at 1.59 nM.
As for `Cc1ncc(-c2ccc3c(c2)CC(C)N(CC(C)(C)F)C3c2c(F)cc(/C=C/C(=O)O)cc2F)s1` [Example 10, (E)-3-(3,5-difluoro-4-((1S,3R/1R,3S)-2-(2-fluoro-2-methylpropyl)-3-methyl-6-(2-methylthiazol-5-yl)-1,2,3,4-tetrahydroisoquinolin-1-yl)phenyl)acrylic acid], on ERα (MCF-7 cells), the DC50 is 6.58 nM.
For `Cc1ncc(-c2ccc3c(c2)C[C@@H](C)N(CC(C)(C)F)[C@@H]3c2c(F)cc(/C=C/C(=O)O)cc2F)s1` [Example 11, (E)-3-(3,5-difluoro-4-((1S,3R)-2-(2-fluoro-2-methylpropyl)-3-methyl-6-(2-methylthiazol-5-yl)-1,2,3,4-tetrahydroisoquinolin-1-yl)phenyl)acrylic acid], the IC50 on estrogen receptor (ER) turned out to be 0.64 nM. Further, the DC50 on ERα (MCF-7 cells) is 2.02 nM.
In the case of `Cc1ncc(-c2ccc3c(c2)C[C@H](C)N(CC(C)(C)F)[C@H]3c2c(F)cc(/C=C/C(=O)O)cc2F)s1` [Example 12, (E)-3-(3,5-difluoro-4-((1R,3S)-2-(2-fluoro-2-methylpropyl)-3-methyl-6-(2-methylthiazol-5-yl)-1,2,3,4-tetrahydroisoquinolin-1-yl)phenyl)acrylic acid], on estrogen receptor (ER), the IC50 came to 56.5 nM.
With `CCn1cc(-c2ccc3c(c2)CC(C)N(CC(C)(C)F)C3c2c(F)cc(/C=C/C(=O)O)cc2F)cn1` [Example 20, (E)-3-(4-((1S,3R/1R,3S)-6-(1-ethyl-1H-pyrazol-4-yl)-2-(2-fluoro-2-methylpropyl)-3-methyl-1,2,3,4-tetrahydroisoquinolin-1-yl)-3,5-difluorophenyl)acrylic acid], on ERα (MCF-7 cells), the DC50 is 0.82 nM.
`CCn1cc(-c2ccc3c(c2)C[C@@H](C)N(CC(C)(C)F)[C@@H]3c2c(F)cc(/C=C/C(=O)O)cc2F)cn1` [Example 21, (E)-3-(4-((1S,3R)-6-(1-ethyl-1H-pyrazol-4-yl)-2-(2-fluoro-2-methylpropyl)-3-methyl-1,2,3,4-tetrahydroisoquinolin-1-yl)-3,5-difluorophenyl)acrylic acid]: the IC50 at estrogen receptor (ER) turned out to be 0.32 nM. Further, the DC50 on ERα (MCF-7 cells) came out at 0.67 nM.
As for `CC1Cc2cc(-c3cn[nH]c3)ccc2C(c2c(F)cc(/C=C/C(=O)O)cc2F)N1CC(C)(C)F` [Example 24, (E)-3-(3,5-difluoro-4-((1S,3R/1R,3S)-2-(2-fluoro-2-methylpropyl)-3-methyl-6-(1H-pyrazol-4-yl)-1,2,3,4-tetrahydroisoquinolin-1-yl)phenyl)acrylic acid], the IC50 in the assay with MCF7 cells was 0.46 nM. For the same molecule, the DC50 at ERα is 0.12 nM.
Turning to `C[C@@H]1Cc2cc(-c3cn[nH]c3)ccc2[C@@H](c2c(F)cc(/C=C/C(=O)O)cc2F)N1CC(C)(C)F` [Example 25, (E)-3-(3,5-difluoro-4-((1S,3R)-2-(2-fluoro-2-methylpropyl)-3-methyl-6-(1H-pyrazol-4-yl)-1,2,3,4-tetrahydroisoquinolin-1-yl)phenyl)acrylic acid], the IC50 at estrogen receptor (ER) stood at 0.51 nM. Also, the DC50 on ERα (MCF-7 cells) came to 0.21 nM.
